Measurements as given in patent US11331020B2 (TRUSTEES OF BOSTON UNIVERSITY, priority 2020, dated 2022).

Columns and labels:
[1] = Specificity of NicA2(N462H) compared to CYP2B6; type: biochemical; conditions: FIG. 27
[2] = Activity of NicA2 mutants versus wild type NicA2; type: biochemical; conditions: for oxidation activity of NicA2 mutant: compared to wild type and other NicA2 mutants

B1: NicA2(N462H) (protein, listed as Pseudomonas putida)
chain: MSDKTKTNEGFSRRSFIGSAAVVTAGVAGLGAIDAASATQKTNRASTVKGGFDYDVVVVGGGFAGATAARECGLQGYRTLLLEARSRLGGRTFTSRFAGQEIEFGGAWVHWLQPHVWAEMQRYGLGVVEDPLTNLDKTLIMYNDGSVESISPDEFGKNIRIAFEKLCHDAWEVFPRPHEPMFTERARELDKSSVLDRIKTLGLSRLQQAQINSYMALYAGETTDKFGLPGVLKLFACGGWNYDAFMDTETHYRIQGGTIGLINAMLTDSGAEVRMSVPVTAVEQVNGGVKIKTDDDEIITAGVVVMTVPLNTYKHIGFTPALSKGKQRFIKEGQLSKGAKLYVHVKQNLGRVFAFADEQQPLNWVQTHDYSDELGTILSITIARKETIDVNDRDAVTREVQKMFPGVEVLGTAAYDWTADPFSLGAWAAYGVGQLSRLKDLQAAEGRILFAGAETSNGWHAHIDGAVESGLRAGREVKQLLS
- analytes degraded [1]: degraded only nicotine
- kobs, kred and Kd of NicA2 mutant ([2]; FIG. 11D, versus WT): improved kobs (how fast oxygen is entering) and kred rates (how fast FAD is reduced) and Kd (ligand binds more tightly)
- current and sensitivity to nicotine of NicA2 mutant ([2]; compared to N462V, N462Y/W427Y, A107R): produced more current, was more sensitive to nicotine
- oxidation activity of NicA2 mutant [2]: highest oxidation activity
- oxidation activity of NicA2 mutant ([2]; listed as N462H): increased oxidative activity
